Assay results published in ChEMBL document CHEMBL1153816, “Novel N-substituted 4-hydrazino piperidine derivative as a dipeptidyl peptidase IV inhibitor” (Bioorg Med Chem Lett, 2009).
pIC50: −log10 of the molar value.

By UniProt entry, the sequences of proteins in these tests, tags left out. Where a name states a change or a piece, a line headed by the entry shows the natural chain unless it says otherwise.
UniProt P22411: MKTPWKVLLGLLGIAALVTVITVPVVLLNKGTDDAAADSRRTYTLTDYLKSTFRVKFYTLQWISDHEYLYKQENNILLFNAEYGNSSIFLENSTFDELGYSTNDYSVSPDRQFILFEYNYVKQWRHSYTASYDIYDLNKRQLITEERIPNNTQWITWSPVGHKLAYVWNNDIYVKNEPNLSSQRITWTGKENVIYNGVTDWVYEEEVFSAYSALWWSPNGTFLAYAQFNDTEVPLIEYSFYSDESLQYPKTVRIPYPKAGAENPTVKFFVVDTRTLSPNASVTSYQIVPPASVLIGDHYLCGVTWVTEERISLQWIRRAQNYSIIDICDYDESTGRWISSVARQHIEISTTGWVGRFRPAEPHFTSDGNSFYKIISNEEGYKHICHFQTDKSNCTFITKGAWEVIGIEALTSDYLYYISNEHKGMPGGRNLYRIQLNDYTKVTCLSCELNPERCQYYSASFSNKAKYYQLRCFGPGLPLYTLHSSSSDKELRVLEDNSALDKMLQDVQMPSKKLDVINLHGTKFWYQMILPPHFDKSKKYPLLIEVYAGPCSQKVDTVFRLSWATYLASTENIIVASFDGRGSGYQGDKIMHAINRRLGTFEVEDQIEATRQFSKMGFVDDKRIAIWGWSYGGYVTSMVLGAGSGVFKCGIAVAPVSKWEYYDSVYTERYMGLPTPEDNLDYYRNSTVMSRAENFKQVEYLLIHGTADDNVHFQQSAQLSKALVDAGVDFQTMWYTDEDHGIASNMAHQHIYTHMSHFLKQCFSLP

What was measured:
[1] = biological target: Dipeptidyl peptidase 4 (Sus scrofa, UniProt P22411); assay: Inhibition of pig kidney DPP4 by spectrophotometric method
[2] = biological target: T1, Prolyl endopeptidase (Homo sapiens, UniProt P48147); assay: Inhibition of PEP
T1 sequence (P48147 whole entry): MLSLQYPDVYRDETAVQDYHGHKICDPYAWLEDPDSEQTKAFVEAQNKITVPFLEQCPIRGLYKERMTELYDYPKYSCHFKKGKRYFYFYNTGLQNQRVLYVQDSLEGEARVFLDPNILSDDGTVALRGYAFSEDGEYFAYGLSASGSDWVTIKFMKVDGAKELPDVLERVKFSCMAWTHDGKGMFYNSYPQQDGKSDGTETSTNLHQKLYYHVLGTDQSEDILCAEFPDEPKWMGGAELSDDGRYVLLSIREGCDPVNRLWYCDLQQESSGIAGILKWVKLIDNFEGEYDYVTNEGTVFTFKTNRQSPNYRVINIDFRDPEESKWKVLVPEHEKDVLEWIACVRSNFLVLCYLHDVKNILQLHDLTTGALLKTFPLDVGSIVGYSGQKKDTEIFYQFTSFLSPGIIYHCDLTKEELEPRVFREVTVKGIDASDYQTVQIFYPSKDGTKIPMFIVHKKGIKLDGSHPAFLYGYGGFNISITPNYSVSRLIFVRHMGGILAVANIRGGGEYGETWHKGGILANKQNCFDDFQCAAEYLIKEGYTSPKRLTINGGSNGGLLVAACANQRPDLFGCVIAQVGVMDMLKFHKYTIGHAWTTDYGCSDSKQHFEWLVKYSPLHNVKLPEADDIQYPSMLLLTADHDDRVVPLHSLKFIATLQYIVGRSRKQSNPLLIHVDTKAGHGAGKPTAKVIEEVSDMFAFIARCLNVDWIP

[3] = biological target: Dipeptidyl peptidase 2 (Homo sapiens, UniProt Q9UHL4); assay: Inhibition of DPP2

Row | pIC50 [1] | pIC50 [2] | pIC50 [3] | SMILES
1 | 6.18 | – | – | N#C[C@@H]1CSCN1C(=O)CN(N)C1CCN(C(=O)Cc2cccnc2)CC1
2 | 6.92 | – | – | N#C[C@@H]1CSCN1C(=O)CN(N)C1CCN(CC(=O)Nc2cccnc2Cl)CC1 [listing 1 of 2 here]
3 | 6.59 | – | – | N#C[C@@H]1CSCN1C(=O)CN(N)C1CCN(CC(=O)Nc2ccc(Cl)cc2)CC1
4 | 6.15 | – | – | N#Cc1ccc(CN2CCC(N(N)CC(=O)N3CSC[C@H]3C#N)CC2)cc1
5 | 6.91 | – | – | N#C[C@@H]1CSCN1C(=O)CN(N)C1CCN(CC(=O)Nc2cccnc2Cl)CC1 [listing 2 of 2 here]
6 | 6.38 | – | – | N#C[C@@H]1CSCN1C(=O)CN(N)C1CCN(CC(=O)NCCc2cccs2)CC1
7 | 6.65 | – | – | N#C[C@@H]1CSCN1C(=O)CN(N)C1CCN(CC(=O)Nc2ccc3c(c2)OCCO3)CC1
8 | 6.09 | – | – | N#C[C@@H]1CSCN1C(=O)CN(N)C1CCN(CC(N)=O)CC1
9 | 5.39 | – | – | N#C[C@H]1CSCN1C(=O)CN(N)C1CCN(CC(=O)Nc2ccc(Cl)cn2)CC1
10 | – | < 5.00 | < 5.00 | N#C[C@@H]1CSCN1C(=O)CN(N)C1CCN(CC(=O)Nc2ccc(Cl)cn2)CC1
